Only some compounds are listed: those with a hit (about 16% of all), similar ones and a draw of the others.
uPA generation = blocks generation of uPA at the cell surface; cell surface uPA generation assay, qHTS; Potency, µM (doses to about 38.3 µM), without a hit: top-dose activity change, negative = inhibition, hits mostly inhibitors; 330,000 tested, 0.31% active; AID 540303; active = well fitted inhibition curve with a large enough effect; inconclusive = small, poorly fitted or top-dose-only effect; inactive = no such curve, though single readings can be large or run the other way; tested in mouse RAW 264.7 cells; note: potency is the fitted concentration of half-maximal effect; % is set by controls: 0 for no effect and ±100 for the full control effect; nearly all actives have a fitted effect of over 55% in size
miR-21 reporter = miR-21 reporter, rising signal | Potency, µM (highest dose often 38.3 µM), for inactives: at the highest dose reporter change, positive = more light | 340,000 tested, under 10 active | HeLa miR-21 FLuc reporter, luciferase, 48 h; active = well fitted rising curve with a large enough effect; inconclusive = small, poorly fitted or top-dose-only effect; inactive = no such curve, though single readings can be large or run the other way;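 note: % of control where 0% means no effect; miR-21 action dims this reporter so a rising signal means less miR-21 action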
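Using DMEM plus 10% FBS, HeLa miR-21-FLuc cells are incubated with test compounds (final up to about 40uM) for 48 hours; firefly luciferase signal is then imaged following reagent-mediated lysis.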
TDP1 cell noCPT = qHTS for Inhibitors of human tyrosyl-DNA phosphodiesterase 1 (TDP1): qHTS in cells in absence of CPT. DT40 Tdp1-/- hTDP1 cells, no CPT, ATP luminescence, 48 h. Potency, µM (highest dose often 46.2 µM), inactives show at the top dose activity change, negative = growth inhibition, most hits filed as inhibitors. 420,000 tested, 15% active. AID 686978, 2013; note: potency is the fitted concentration of half-maximal effect; % is set by controls: 0 for no effect and ±100 for the full control effect; nearly all actives have a fitted effect of over 55% in size
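DT40 Tdp1-/-;hTDP1 cells, no CPT (DMSO vehicle only), 400 cells/well; compounds pin-transferred; ≥48 hr, 37 °C; CellTiter-Glo 30 min RT dark, luminescence read.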
TDP1 block = inhibitors of human tyrosyl-DNA phosphodiesterase TDP1; Q9NUW8; 350,000 tested, 0.28% active; recombinant TDP1, AlphaScreen DNA substrate cleavage; Potency, µM (titrated, usually from 130 µM), inactives show top-dose activity change, negative = inhibition, actives largely listed as inhibitors; note: potency is the fitted concentration of half-maximal effect; % is set by controls: 0 for no effect and ±100 for the full control effect; nearly all actives have a fitted effect of over 40% in size
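Compounds were preincubated with Tdp1 (1 nM final) for 15 min at room temperature before substrate (15 nM final) started a 5 min reaction; beads (10 ug/ml final) were then added for 10 min before AlphaScreen detection.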
TDP1 cell CPT = growth inhibition of DT40 Tdp1-/-;hTDP1 cells with camptothecin (screen for TDP1 inhibitors); chicken DT40 Tdp1-/-;hTDP1 cells + 20 nM CPT, ATP luminescence, 48 h; Potency, µM (titrated, usually from 46.2 µM), for the others: at the highest dose activity change, negative = growth inhibition, most hits filed as inhibitors; 420,000 tested, 12% active; note: potency is the fitted concentration of half-maximal effect; % is set by controls: 0 for no effect and ±100 for the full control effect; nearly all actives have a fitted effect of over 55% in size
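Chicken DT40 Tdp1-/- cells complemented with human TDP1, 400 cells/well, exposed to compounds plus 20 nM camptothecin for at least 48 h at 37 C; viability read as ATP content by CellTiter-Glo luminescence.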
* hit, by the source's call; ? = inconclusive; / = not tested or not shown. Unless noted, calls come from the whole dose curve; as a rule, active = well fitted curve in the direction sought with a large enough effect; inconclusive = small, poorly fitted or top-dose-only effect, or another doubt; inactive = no such curve, though single readings can be large; an effect the other way counts as inactive or inconclusive.

SMILES | uPA generation | miR-21 reporter | TDP1 cell noCPT | TDP1 block | TDP1 cell CPT
O=S(=O)(O)c1ccc2c(c1)-c1nc-2nc2[nH]c(nc3nc(nc4[nH]c(n1)c1ccc(S(=O)(=O)O)cc41)-c1ccc(S(=O)(=O)O)cc1-3)c1ccc(S(=O)(=O)O)cc21 | / | / | / | 0.1µM* | /
O=C(Nc1ccc(S(=O)(=O)N2CCOCC2)cc1)C1CCN(S(=O)(=O)c2ccccc2)CC1 | 11.1% | / | 16.4µM* | 3.9% | ?
CSc1cccc(NC(=O)C2CCCN(S(=O)(=O)c3cccs3)C2)c1 (configuration not stated) | -1.5% | 20.6% | 18.4µM* | 2.2% | ?
CSc1cccc(NC(=O)C2CCCN(S(=O)(=O)c3ccc(F)cc3)C2)c1 (configuration not stated) | -2.7% | 24.8% | 8.2µM* | 5.3% | 10.3µM*
CC(C)c1ccc(NC(=O)C2CCCN(S(=O)(=O)c3ccc(Br)s3)C2)cc1 (configuration not stated) | / | 24.6% | ? | 5.0% | ?
CSc1cccc(NC(=O)C2CCCN2S(=O)(=O)c2ccc(Br)s2)c1 (configuration not stated) | / | 16.6% | 23.1µM* | 7.0% | ?
O=C(NCCCN1CCCC1=O)C1CCN(S(=O)(=O)c2cc(C(F)(F)F)ccc2Cl)CC1 | -9.5% | / | ? | -0.1% | 14.6µM*
O=C(NCCCN1CCCC1=O)C1CCN(S(=O)(=O)c2cccc(C(F)(F)F)c2)CC1 | 7.4% | / | -22.7% | -5.6% | -15.8%
COc1ccc(S(=O)(=O)N2CCC(C(=O)Nc3ccc(S(=O)(=O)N4CCCC4)cc3)CC2)cc1OC | 1.3% | / | 29.1µM* | / | ?
COc1ccc(OC)c(S(=O)(=O)N2CCC(C(=O)N3CCc4ccccc4C3)CC2)c1 | 5.6% | 16.5% | 23.1µM* | 10.9% | ?
COc1ccc(OC)c(S(=O)(=O)N2Cc3ccccc3CC2C(=O)Nc2ccc(C(C)=O)cc2)c1 (configuration not stated) | / | -14.8% | 10.3µM* | 9.8% | ?
CSc1cccc(NC(=O)C2CCN(S(=O)(=O)c3ccc4c(c3)NC(=O)CO4)CC2)c1 | -2.6% | 20.0% | ? | 5.0% | ?
COc1ccc(OC)c(S(=O)(=O)N2CCC(C(=O)Nc3cccc(C(F)(F)F)c3)CC2)c1 | -12.7% | 20.0% | 14.6µM* | 3.1% | 18.4µM*
COc1ccc(NC(=O)C2CCCCN2N)cc1OC (configuration not stated) | 1.6% | -13.5% | 18.4µM* | 6.6% | ?
CCCCN(CCCNC(=O)C1CCN(S(=O)(=O)N2CCOCC2)CC1)c1ccccc1 | 3.5% | 13.4% | 13µM* | 1.0% | 13µM*
CSc1cccc(NC(=O)C2CCN(S(=O)(=O)c3ccc(F)cc3)CC2)c1 | 3.5% | 24.9% | 20.6µM* | 3.1% | ?
COc1cccc(NC(=O)C2CCN(S(=O)(=O)c3ccccc3)CC2)c1 | -11.1% | 6.4% | -9.8% | -0.4% | -14.0%
CCCCN(C)CCNC(=O)C1CCN(S(=O)(=O)c2cccc3nsnc23)CC1 | 1.9% | -1.5% | -1.6% | 3.9% | -7.0%
O=C(Nc1ccc(C(F)(F)F)cc1)C1CCN(S(=O)(=O)c2ccc(N3CCCC3=O)cc2)CC1 | 3.2% | 2.8% | ? | -0.3% | 2.59µM*
CC(=O)c1cccc(NC(=O)C2CCN(S(=O)(=O)c3ccc(C)cc3)CC2)c1 | 10.0% | -6.5% | -28.7% | 0.7% | 1.6%
COc1ccc(S(=O)(=O)N2CCC(C(=O)NCc3cccnc3)CC2)cc1OC | 1.8% | 0.5% | -7.6% | 4.47µM* | 9.9%
O=C(Nc1ccc(Br)cc1)C1CCCN1S(=O)(=O)c1ccc(F)cc1 (configuration not stated) | / | 17.2% | 14.6µM* | 4.9% | ?
COc1ccc(S(=O)(=O)N2CCC(C(=O)Nc3cccc(C(C)=O)c3)CC2)cc1C | / | 0.9% | ? | 1.1% | 11.2µM*
O=C(Nc1ccc(F)cc1)C1CCCN1S(=O)(=O)c1ccc(Br)cc1 (configuration not stated) | -5.2% | 5.2% | -22.7% | -0.2% | ?
CC(=O)N1CCC(N(Cc2ccc(C)o2)C(=O)Nc2ccc(C)cc2)CC1 | / | -17.2% | -18.3% | 2.5% | 1.8%

Quoted at random: two compounds from above, in no set order.
SMILES | uPA generation | miR-21 reporter | TDP1 cell noCPT | TDP1 block | TDP1 cell CPT
O=C(NCCCN1CCCC1=O)C1CCN(S(=O)(=O)c2cccc(C(F)(F)F)c2)CC1 | 7.4% | / | -22.7% | -5.6% | -15.8%
CSc1cccc(NC(=O)C2CCCN(S(=O)(=O)c3ccc(F)cc3)C2)c1 (configuration not stated) | -2.7% | 24.8% | 8.2µM* | 5.3% | 10.3µM*

Next compounds:
SMILES | uPA generation | miR-21 reporter | TDP1 cell noCPT | TDP1 block | TDP1 cell CPT
O=C(Nc1ccc(S(=O)(=O)N2CCCC2)cc1)C1CCN(S(=O)(=O)c2ccc(F)cc2)CC1 | -7.0% | / | 18.4µM* | -6.8% | ?
CC1CCCN(S(=O)(=O)c2ccc(NC(=O)C3CCN(C(=O)c4ccco4)CC3)cc2)C1 (configuration not stated) | 0.8% | ? | 13µM* | 7.0% | 20.6µM*
CCCCc1ccc(S(=O)(=O)N2CCN(C(=O)c3ccco3)CC2)cc1 | -0.6% | 0.1% | 8.2µM* | 2.5% | ?
CCC(C)NS(=O)(=O)c1ccc(NC(=O)C2CCN(C(=O)c3ccco3)CC2)cc1 (configuration not stated) | 1.8% | 5.1% | ? | 1.2% | ?
Cc1ccc(NC(=O)C2CCN(S(=O)(=O)c3ccc(F)cc3)CC2)cc1 | 4.1% | -6.1% | ? | 2.3% | -28.2%
CCN(CC)S(=O)(=O)c1ccc(S(=O)(=O)N2CCN(C(=O)c3ccco3)CC2)cc1 | -15.5% | -0.3% | -3.6% | 2.6% | -14.5%
O=C(N/N=C/c1ccc(OCCCF)cc1)c1ccc(C(F)(F)F)cc1 | 1.4% | -3.2% | 0.4% | 0.0% | -5.9%
Cc1ccc(N=Cc2ccc[nH]2)c(O)c1 | / | -55.9% | ? | 10.0% | 20.6µM*
Cc1ccccc1N=Cc1ccc[nH]1 | 9.7% | / | 4.3% | / | -0.8%
CCC(CC)C(=O)Nc1ccc2nc(SCc3ccccc3)sc2c1 | / | 1.4% | 16.4µM* | -8.9% | 16.4µM*
COc1cccc(C(=O)Nc2ccc3nc(SCCOc4ccccc4)sc3c2)c1 | / | -2.6% | ? | 2.6% | ?
CCCC(=O)Nc1ccc2nc(SCc3ccc(C)cc3)sc2c1 | / | -9.7% | ? | 0.5% | -1.8%
COc1cc(C(=O)Nc2ccncc2)cc(OC)c1OC | 1.6% | 1.0% | ? | 5.2% | -26.0%
CCC(=O)Nc1nc2ccc(NC(=O)c3cc(OC)c(OC)c(OC)c3)cc2s1 | -3.8% | 4.9% | 20.6µM* | 5.7% | ?
COc1cc(C(=O)Nc2ccc3nc(SCc4ccccc4)sc3c2)cc(OC)c1OC | / | 20.0% | 14.6µM* | 3.6% | 13µM*
CCC(=O)Nc1ccc2nc(SCc3ccccc3)sc2c1 | / | -58.8% | 13µM* | 3.6% | ?
Cc1cc(N2C(=O)C(O)=C(C(=O)c3cccs3)C2c2ccc(F)cc2)no1 (configuration not stated) | 2.7% | -4.5% | -22.8% | 2.7% | -9.2%

Of the compounds above, these have a thiophene ring, fused or not.
SMILES | uPA generation | miR-21 reporter | TDP1 cell noCPT | TDP1 block | TDP1 cell CPT
CSc1cccc(NC(=O)C2CCCN(S(=O)(=O)c3cccs3)C2)c1 (configuration not stated) | -1.5% | 20.6% | 18.4µM* | 2.2% | ?
CC(C)c1ccc(NC(=O)C2CCCN(S(=O)(=O)c3ccc(Br)s3)C2)cc1 (configuration not stated) | / | 24.6% | ? | 5.0% | ?
CSc1cccc(NC(=O)C2CCCN2S(=O)(=O)c2ccc(Br)s2)c1 (configuration not stated) | / | 16.6% | 23.1µM* | 7.0% | ?
Cc1cc(N2C(=O)C(O)=C(C(=O)c3cccs3)C2c2ccc(F)cc2)no1 (configuration not stated) | 2.7% | -4.5% | -22.8% | 2.7% | -9.2%

High-throughput results as filed in PubChem.
